Some results are limits rather than exact numbers.

One test has as its system Vero cells. Description: Mammalian cell cytotoxicity, Vero cells (Alamar blue). In kind it is cell-based. Particulars: read-out: IC50 Vero cells; Table 6. For orientation: Resazurin is reduced to fluorescent resorufin, in cell work by metabolically active cells.
Another test relates to THP-1 cells. Description: Mammalian cell cytotoxicity, THP-1 (Alamar blue). Particulars: read-out: IC50 THP1; 6 days.

As usually defined, the IC50 is the concentration that gives 50% inhibition. Take “3-Fluoro-4-nitrobenzyl phosphoramide mustard”: the IC50 in the test on Vero cells is above 100 µM; in the test on THP-1 cells, 17.6 µM.

For the origin of these results see patent US20120322768A1, “COMPOUNDS, COMPOSITIONS AND METHODS FOR TREATING PROTOZOAN INFECTIONS” (QUEEN MARY & WESTFIELD COLLEGE, priority 2009, published 2012).
